Publication PMC7723054
This is one part of the list.

B1: hsa-mir-1255a (structured_RNA)
RNA: GGGAAGCAUGCGUUUCGCGAGUCUAACCGGUGUACGAAGUUUCAGCGAUUUUUUAGAUUCUAAAGAAACGCUGAAGCUUCGUGCAC
B2: hsa-mir-3124 (structured_RNA)
RNA: GGGAAACGAAAUCGGCUAGUAUAUGGCUGGUGUACGAAGUUUCAGCAAGUCGAUUUCCAAAAGUGACUUGCUGAAGCUUCGUGCAC
B3: hsa-mir-4527 (structured_RNA)
RNA: GGGAACCCCUGCGCCUGUAAAGUCAAACGGUGUACGAAGUUUCAGCCUGUGAAUCCAAGAUCCACAGCUGAAGCUUCGUGCAC
B4: NEAT1_ParasoR_ID20 (structured_RNA)
RNA: GGGAACAACUCAGACGAGGCGUGAUUUUGGUGUACGAAGUUUCAGCGAUUUGCAUUUCUCUGAUGAGUGAUGCUAUCGCUGAAGCUUCGUGCAC
B5: hsa-mir-485 (structured_RNA)
RNA: GGGACCGAAAGGAGAGCAGUAAUCUGAUGGUGUACGAAGUUUCAGCGAAUUCGAUUCAUCAAAGCGAGUCGCUGAAGCUUCGUGCAC
B6: hsa-mir-582 (structured_RNA)
RNA: GGGAAUACACCCGGCAAAUGCUGUUCCGGGUGUACGAAGUUUCAGCGUUACUAAUCUAACUAAUUGUAACGCUGAAGCUUCGUGCAC
B7: hsa-mir-6716 (structured_RNA)
RNA: GGGAAGGCUAUCGGAGUCCCUUGUGGUCGGUGUACGAAGUUUCAGCAGGGCCUUCUGAGCCCAGGUCCGGCUGAAGCUUCGUGCAC
B8: hsa-mir-6128 (structured_RNA)
RNA: GGGACGCCUACACCUGAGAUUGGUUGCUGGUGUACGAAGUUUCAGCCAUGAUUUGGAAAAAUUACUGGCUGAAGCUUCGUGCAC
B9: hsa-mir-4287 (structured_RNA)
RNA: GGGCAUUAUCUUGCGAAUGCGGUGAGCCGGUGUACGAAGUUUCAGCUUUUCAGUUCCUGAGAUCGCUGAAGCUUCGUGCAC
B10: hsa-mir-522 (structured_RNA)
RNA: GGGAUUAAAAGUGCCUUGCGGACUCCAUGGUGUACGAAGUUUCAGCCUUUCUGUUGUCUGAAAGAAAAGAAAAGCUGAAGCUUCGUGCAC
B11: hsa-mir-3146 (structured_RNA)
RNA: GGGAACUAAGGAUGCUAGGCAGGGUCUAGGUGUACGAAGUUUCAGCUAUAACUUGAAGAAUUCAAAUAGUCAUGGCUGAAGCUUCGUGCAC
B12: hsa-mir-4662b (structured_RNA)
RNA: GGGAUAUACCUACGCAGGCCCGCUGAAUGGUGUACGAAGUUUCAGCCUUUAGGCAUUCAGAAUAGCUAAAGGCUGAAGCUUCGUGCAC
B13: hsa-mir-4269 (structured_RNA)
RNA: GGGAGUGGUUGCAUGACUCACCAUUCACGGUGUACGAAGUUUCAGCUGGCUUCUGCCUCUUUCUUUGUGGAAGCCAGCUGAAGCUUCGUGCAC
B14: hsa-mir-133a-2 (structured_RNA)
RNA: GGGAACGCAUGCUGGAAACUUAGCGUCAGGUGUACGAAGUUUCAGCCAAAUCGACUGUCCAAUGGAUUUGGCUGAAGCUUCGUGCAC
B15: hsa-mir-3691 (structured_RNA)
RNA: GGGACUGGGGCUGCUCGACUUAAACGUAGGUGUACGAAGUUUCAGCCGGUACCCACUGCUGAGGGUGGGGACCAGCUGAAGCUUCGUGCAC
B16: hsa-mir-298 (structured_RNA)
RNA: GGGACUAGGGUGCUUGACAAUAUACCCCGGUGUACGAAGUUUCAGCCCAGUGGUUUUCCUUGACUGUGGCUGAAGCUUCGUGCAC
B17: hsa-mir-371a (structured_RNA)
RNA: GGGAAAUUAGGUCGAGCAACGUCACUUUGGUGUACGAAGUUUCAGCCACUUUCUGCUCUCUGGUGAAAGUGGCUGAAGCUUCGUGCAC
B18: hsa-mir-6073 (structured_RNA)
RNA: GGGAAGAACCGUCAGCUGGGCUCAAAUGGGUGUACGAAGUUUCAGCUGCCUCUCGGGGUGCUGAAGCUUCGUGCAC
B19: hsa-mir-4765 (structured_RNA)
RNA: GGGAACAGGGAGCACGAUACCUGUUUCCGGUGUACGAAGUUUCAGCCUCAGCCUGGAAAAAGCUGAGGCUGAAGCUUCGUGCAC
B20: hsa-mir-382 (structured_RNA)
RNA: GGGAAAAUGACACUCGGAAGUCGACCCCGGUGUACGAAGUUUCAGCGAUUCGCUUUACUUAUGACGAAUCGCUGAAGCUUCGUGCAC
B21: hsa-mir-320c-1 (structured_RNA)
RNA: GGGAUGGGAGGGCGAAGUUCCAUAAGAGGGUGUACGAAGUUUCAGCUCUUCCCAGAGUCAGGAAAAGCUGAAGCUUCGUGCAC
B22: hsa-mir-3145 (structured_RNA)
RNA: GGGACAGGUACAGAUAAAGGCAACUACCGGUGUACGAAGUUUCAGCCUCAUUGUUGAAUGGAAUGAGAUGCUGAAGCUUCGUGCAC
B23: hsa-mir-4804 (structured_RNA)
RNA: GGGAACGGACGCACUAGAAGACCGCUUUGGUGUACGAAGUUUCAGCAGCAAGGUGCGUCGUAUCUUGCUGCUGAAGCUUCGUGCAC
B24: hsa-mir-924 (structured_RNA)
RNA: GGGAACGGGAACUAGUGUUGCUCCUUGAGGUGUACGAAGUUUCAGCUUGCUUAAGGCUGAAGCUUCGUGCAC
B25: hsa-mir-4710 (structured_RNA)
RNA: GGGAGGUUACUAGGCAAGCGCUAACUUUGGUGUACGAAGUUUCAGCGGUUCUUCCCGAAGCGCUGAAGCUUCGUGCAC
B26: hsa-mir-4273 (structured_RNA)
RNA: GGGAAAAGCUGGUAGCCCCGAAUCAGUCGGUGUACGAAGUUUCAGCCAGUAAGCCUUGACUUAUGGCUAAAUGCUUCGCUGAAGCUUCGUGCAC

How the values were obtained:
Assay in all cases: FOREST: bead pull-down of RNA structure library v1, barcode microarray; U1A/LIN28A: 20 mM HEPES pH 7.5, 80 mM KCl, 20 mM NaCl, 10% glycerol, 2 mM DTT, 0.1 ug/uL BSA, 4 C; BG4/CIRBP/DHX36: 10 mM Tris-HCl pH 7.5, 100 mM KCl (or LiCl),; high values mean tight binding
[1] = molecular target: T1, LIN28A (human?, UniProt Q9H9Z2 1-209)
T1 sequence: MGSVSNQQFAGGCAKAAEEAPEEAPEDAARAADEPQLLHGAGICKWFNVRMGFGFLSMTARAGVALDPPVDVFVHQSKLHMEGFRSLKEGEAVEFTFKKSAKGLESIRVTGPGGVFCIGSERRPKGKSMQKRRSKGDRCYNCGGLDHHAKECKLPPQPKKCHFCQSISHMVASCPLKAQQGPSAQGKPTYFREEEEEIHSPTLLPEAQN

[2] = molecular target: T2, CIRBP (Homo sapiens, UniProt Q14011 1-172)
T2 sequence: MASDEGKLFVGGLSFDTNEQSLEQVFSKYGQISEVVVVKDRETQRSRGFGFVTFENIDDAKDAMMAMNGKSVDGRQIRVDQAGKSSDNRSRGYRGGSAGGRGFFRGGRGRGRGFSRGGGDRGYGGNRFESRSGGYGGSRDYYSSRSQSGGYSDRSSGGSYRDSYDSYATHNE

[3] = molecular target: T3, DHX36 (Homo sapiens, UniProt Q9H2U1 1-1008)
T3 sequence: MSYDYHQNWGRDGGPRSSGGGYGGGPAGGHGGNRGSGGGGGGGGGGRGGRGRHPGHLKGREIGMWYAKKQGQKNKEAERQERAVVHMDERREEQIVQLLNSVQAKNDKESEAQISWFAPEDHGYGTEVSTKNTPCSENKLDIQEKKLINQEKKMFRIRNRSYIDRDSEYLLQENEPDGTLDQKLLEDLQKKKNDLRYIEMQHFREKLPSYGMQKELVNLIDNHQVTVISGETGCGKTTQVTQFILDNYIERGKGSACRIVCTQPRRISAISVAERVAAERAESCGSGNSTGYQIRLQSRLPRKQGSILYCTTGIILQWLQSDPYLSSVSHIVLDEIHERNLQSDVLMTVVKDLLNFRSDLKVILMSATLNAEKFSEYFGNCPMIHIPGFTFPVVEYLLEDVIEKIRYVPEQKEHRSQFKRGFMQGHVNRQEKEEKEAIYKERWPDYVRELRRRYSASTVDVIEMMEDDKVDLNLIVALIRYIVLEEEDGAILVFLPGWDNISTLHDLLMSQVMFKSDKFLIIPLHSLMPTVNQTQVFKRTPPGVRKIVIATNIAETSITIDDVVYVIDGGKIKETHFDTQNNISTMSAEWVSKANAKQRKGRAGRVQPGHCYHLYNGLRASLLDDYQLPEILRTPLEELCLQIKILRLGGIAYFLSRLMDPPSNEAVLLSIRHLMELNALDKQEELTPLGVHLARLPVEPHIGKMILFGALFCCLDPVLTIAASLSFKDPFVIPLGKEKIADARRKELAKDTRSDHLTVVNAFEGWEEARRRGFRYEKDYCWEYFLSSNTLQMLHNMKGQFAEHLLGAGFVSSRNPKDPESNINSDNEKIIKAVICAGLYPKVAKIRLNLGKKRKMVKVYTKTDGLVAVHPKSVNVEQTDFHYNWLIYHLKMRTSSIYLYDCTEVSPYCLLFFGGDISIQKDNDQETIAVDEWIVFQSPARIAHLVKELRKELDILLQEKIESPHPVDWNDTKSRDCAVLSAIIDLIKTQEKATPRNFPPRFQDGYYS

Binder | binding signal [1] [z-score] | binding signal [2] [z-score] | binding signal [3] [z-score]
B1 | -1.08 | -0.51 | -0.959
B2 | -1.08 | 0.95 | 0.148
B3 | -1.08 | -0.404 | -0.579
B4 | -1.08 | -0.24 | -0.854
B5 | -1.09 | 0.558 | -1.01
B6 | -1.09 | 0.441 | -0.0203
B7 | -1.09 | 0.00644 | -0.277
B8 | -1.09 | -1.18 | -0.367
B9 | -1.09 | 0.261 | -1.15
B10 | -1.1 | -0.773 | -1.55
B11 | -1.1 | -0.15 | -0.843
B12 | -1.11 | -1.77 | -1.88
B13 | -1.12 | -2.43 | -0.222
B14 | -1.12 | -0.264 | 0.0657
B15 | -1.12 | -1.51 | -0.23
B16 | -1.13 | -2.78 | 0.0667
B17 | -1.13 | 0.229 | -0.493
B18 | -1.13 | -0.14 | -0.265
B19 | -1.13 | -1.69 | 0.913
B20 | -1.13 | -1.51 | -1.11
B21 | -1.13 | -0.787 | -0.16
B22 | -1.14 | 0.257 | -0.0115
B23 | -1.14 | -0.00665 | -0.155
B24 | -1.15 | -0.314 | -0.315
B25 | -1.15 | 0.0718 | -0.361
B26 | -1.15 | 0.122 | -0.394
